Patent US11035858B2, “Methods of isolating barrel-like proteases and identifying peptides processed thereby” (Yeda Research and Development Co. Ltd., priority 2016, dated 2021)

Sequences of proteins named here, by UniProt entry; tags and fusion partners are left off. A change or cut given only in a name is not applied to a line headed by its entry.
UniProt P28074: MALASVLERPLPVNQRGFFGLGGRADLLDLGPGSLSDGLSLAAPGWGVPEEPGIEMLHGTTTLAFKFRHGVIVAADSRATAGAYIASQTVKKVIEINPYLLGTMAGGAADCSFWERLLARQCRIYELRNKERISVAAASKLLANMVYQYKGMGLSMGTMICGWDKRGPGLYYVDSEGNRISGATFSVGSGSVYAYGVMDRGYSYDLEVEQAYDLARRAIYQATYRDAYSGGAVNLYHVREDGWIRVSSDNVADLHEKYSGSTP

Molecular target: proteasome (Homo sapiens, UniProt P28074)
Settings: HEK293 cell lysate; Velcade 40 nM; FIG. 7

number of identified peptides: significantly reduced
SMILES: CC(C)C[C@H](NC(=O)[C@H](Cc1ccccc1)NC(=O)c1cnccn1)B(O)O [Velcade]
